One substance from patent US20140093525A1, “COMPOSITIONS AND METHODS OF TREATING OPIOID ADDICTION” (Minneapolis Medical Research Foundation, priority 2012, published 2014) can be followed below.

The test system of the test is serum antibodies elicited by OXY-KLH. Briefly: Competition ELISA of serum from rats vaccinated with OXY-KLH.

As for [Leu5]-enkephalin [Leu-enkephalin], the “relative affinity of antiserum / cross-reactivity (in words)” value is “negligible cross-reactivity”.
